## Antibody variant affinities, Ab-14 light chain, assay B

Values reported by Li et al. 2023, doi:10.1038/s41467-023-39022-2 (FLAb copy).

All variants were tested on one target, the spike HR2 peptide PDVDLGDISGINAS (SARS-CoV-2).

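The parent was found by panning a naive human phage display library on the peptide. These sequences belong to a second round, designed from the earlier measurements on random variants of the parent. Their group label is 14L_En_Gibbs (En: ensemble of fine-tuned language models; Gibbs: Gibbs sampling). AlphaSeq pools MATa yeast showing the antibodies with MATalpha yeast showing the peptide. Pairs that bind mate more often; barcode pairs of the diploids are counted by sequencing. The ratio of observed to expected reads was calibrated, replicate by replicate, on BCL2-family standards whose Kd was known from biolayer interferometry. The assay was run in six technical replicates.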

Parent scFv Ab-14: VH joined to VL by three GGGGS repeats. Changes lie in the light chain CDRs alone.
VH: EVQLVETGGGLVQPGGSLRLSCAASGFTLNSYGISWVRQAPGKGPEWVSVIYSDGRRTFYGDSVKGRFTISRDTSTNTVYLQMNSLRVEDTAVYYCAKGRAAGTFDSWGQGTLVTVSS
VL: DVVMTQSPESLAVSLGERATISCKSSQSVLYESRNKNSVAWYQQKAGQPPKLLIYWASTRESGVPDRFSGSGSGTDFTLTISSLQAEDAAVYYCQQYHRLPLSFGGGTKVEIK

Each variant is given by its three light chain CDRs, as the data file delimits them; those of the parent are KSSQSVLYESRNKNSVA, WASTRES, QQYHRLPLS.
Affinities are written as log10 Kd with Kd in nM; a lower number is a better binder.
Where no diploid with the target was found in that replicate, the entry reads "ND": below detection, most likely a poor binder, though not proof of it.
Empty control strains, which show no peptide, gave a signal in 4% of pairings with all light chain designs; the median was 2.64 and 95% of these signals were weaker than 1.59. No background was subtracted. For each scFv, signals with the empty controls are counted beside the result, with their mean in brackets.
Values of this round are not directly comparable with the first-round values of the same sequences.
The authors averaged sequences with at least three values out of six and counted those with two or fewer as poor binders.
Of ten entries with the parent sequence, four were seen in most replicates (averages 0.34 to 2.37), three in one and three in none, so single entries are noisy.

CDR-L1	CDR-L2	CDR-L3	replicates, log10 nM	control signals
NLGFEDANDNRGMMAVA	DVNTVGE	QHYNRLPLA	2.47 / ND / 2.08 / ND / ND / 2.20	2/18 (2.08)
HLSFPWQSGHDSMHAVA	NDSTLMT	QHYNRLPLS	1.73 / 1.65 / 1.71 / 1.06 / 1.21 / 1.48	2/18 (2.61)
NLEMFTGMLNMYASSIA	NAHCLVQ	QQYYRLPIS	1.60 / ND / 2.12 / 1.68 / 1.96 / 2.07	1/18 (2.07)
QLEREALWGANYDYSIA	AQDVAMP	QQYDRLPLI	1.09 / 0.57 / 0.47 / 0.64 / 1.17 / 0.86	0/18
KIERSTKGDRYFQYSIA	QGDIREK	QQYAQLPLT	0.82 / 0.89 / 0.44 / 0.93 / 0.58 / 0.61	4/18 (2.97)
KLENSNRWNYRDTNAVA	QASTRAA	QQYQRLPFL	0.27 / -0.01 / 0.15 / 0.11 / -0.09 / 0.07	2/18 (2.99)
MLTRFNLENQGRSNNIA	DTNNVQE	QQYSRLPFA	0.13 / 0.40 / 0.53 / 0.57 / 0.45 / 0.62	0/18
RMNKFMSGATEAKNSMA	GQEHRAQ	QSYHRLPLS	0.66 / 0.46 / 0.59 / 0.59 / 0.66 / 0.85	1/18 (2.72)
NLSDGEMYENATRSHIA	DTSMRDF	QQYNRLPLI	1.38 / 0.51 / 0.96 / 1.33 / 0.91 / 1.63	0/18
KITHQMRTGMAQRNAMA	NGAMRVE	QFYSRLPLF	1.00 / 1.09 / 1.11 / 1.35 / 1.38 / 1.16	4/18 (3.07)
ALQMERLGQKQWQNNIA	NQDIRTA	QQYYMLPLV	0.19 / 0.71 / 0.21 / 0.26 / 0.32 / 0.02	1/18 (2.07)
KVQEEALGGNQYTSNIA	GQSVAMP	QQYERLPLD	0.68 / 0.59 / 0.29 / 0.31 / 0.38 / 0.73	2/18 (2.89)
RLNCSQYDKYEHGKAIA	ADQTRMS	QQYFRLPLS	0.43 / 0.28 / 0.31 / 0.19 / 0.41 / 0.47	1/18 (3.50)
HVSEPKYAVTNHRQNVA	SAAEREV	QQYFRLPFS	0.42 / 0.33 / 0.54 / 0.22 / 0.38 / 0.46	0/18
ALTRQNLQNTDNLNAIA	EQNQTQE	QQYFRLPFA	1.43 / 1.34 / 1.71 / 1.67 / 2.26 / 1.73	2/18 (2.53)
FLAYALDQDGLQKNNIA	QVNLLEN	QQYERLPLA	1.93 / 0.92 / 3.01 / 0.96 / 1.56 / 1.25	2/18 (2.16)
NVGGEDPGQWYMKDSIA	GSSLRAE	QQYWRLPLL	0.21 / 0.11 / 0.12 / -0.13 / 0.17 / 0.14	0/18
DMTVQFNGASKIQNSVA	HGVEKID	QQYSRLPLA	0.24 / 0.01 / 0.05 / -0.05 / 0.17 / -0.07	2/18 (2.51)
KFAQGIYEPKRHSHNIA	EASHVCD	QQYARLPLE	-0.41 / 0.32 / ND / -0.54 / -0.17 / 0.10	0/18
RLMGLDVTEKNDQSAIA	NQQTHLT	QQYERLPLI	ND / 0.67 / 0.91 / 0.38 / 2.05 / 1.54	0/18
KIDGQRSYQGGRERAIA	DANIRQR	QQYARLPLV	0.15 / 0.02 / 0.30 / 0.05 / 0.13 / 0.23	1/18 (2.96)
NLTAKQNQYDQNYSNVA	EATNSEQ	QQYKHLPLS	ND / ND / 2.36 / 3.25 / 2.36 / 2.03	2/18 (2.32)
ALNQKGFQLSGMRDSIA	HSDTRLA	QQYYHLPLA	0.63 / 0.62 / 0.66 / 0.35 / 0.69 / 0.42	0/18
KMTTNLEHQASRKNSIA	EADMVAA	QQYMRLPLI	-0.01 / 0.25 / -0.20 / 0.14 / 0.03 / 0.26	0/18
FLTYAQDQTGLQGNAIA	QVNLKEN	QQYYRLPLA	ND / ND / ND / ND / ND / ND	1/18 (2.32)
NLGQKMALITEQRNQIA	DSTVRED	QQYSRLPLI	0.98 / 0.58 / 0.88 / 0.86 / 0.66 / 0.88	0/18
MLNDAYQGDIANNQNVA	SADVLTH	QQYNKLPLS	0.83 / 0.57 / 0.49 / 0.44 / 0.76 / 0.76	1/18 (1.93)
KMRVSLSQGIYRQDSVA	STDIRVL	QQYHHLPLS	0.83 / 0.77 / 0.74 / 0.55 / 0.85 / 0.85	0/18
NVSIKEPGNWRMWDSVA	HSSLRAE	QQYWRLPLM	0.79 / 0.77 / 0.71 / 0.56 / 0.71 / 0.84	0/18
MLWQHDEGFNGVKDAIA	NAELREG	QQYGRLPLS	0.98 / 1.08 / 0.74 / 0.78 / 0.90 / 0.99	2/18 (2.80)
SLSHDQGDETNHWENVA	QDAYRAN	QDYSRLPLS	2.69 / 2.17 / 3.40 / 2.81 / 2.28 / ND	2/18 (4.32)
RFDQTEQEGIQDKNSVA	QGSQSGS	QHYSRLPLS	1.68 / 1.91 / 1.76 / 1.78 / 2.15 / 2.54	2/18 (2.82)
KMETHSQDNRLDISAIA	EAQTIYQ	QQYARLPLS	1.51 / 1.28 / 1.65 / 1.91 / 1.41 / 1.66	2/18 (2.72)
MMTMFPNEPTGDSNAIA	DHSQLNT	QQYQRLPLM	0.65 / 0.42 / 0.85 / 0.16 / 0.56 / 0.65	1/18 (1.88)
RMSVFMLTDENVWYSVA	NSAATRI	QQYQRLPLS	ND / ND / ND / ND / ND / ND	0/18
VMQMDNDRANDATKAIA	DVTMREK	QQYNRLPLM	0.36 / 0.06 / 0.24 / 0.05 / 0.05 / 0.36	1/18 (2.56)
NLAMAYEQGILIKNNIA	SSNLREN	QQYEHLPLI	0.51 / 0.78 / 0.42 / 0.38 / 0.12 / 0.89	0/18
KLKEWKVDNQTFYSNIA	EADIREL	QQYYRLPLQ	2.50 / 1.40 / ND / 1.59 / 2.09 / 3.70	1/18 (3.06)
SLAFTQHFGQSGGSAVA	EVQMREQ	QQYFRLPLG	1.16 / 0.98 / 1.18 / 0.92 / 1.37 / 1.55	0/18
VLHNTCSDYDMYRNSIA	DAQHREN	QQYYRLPFT	0.51 / 0.27 / 0.58 / 0.17 / 0.30 / 0.79	2/18 (2.14)
QLATEVHDNAKLRHSIA	ENELRAM	QQYFMLPLS	1.00 / 1.02 / 0.59 / 1.89 / 0.16 / 0.25	0/18
KFMMSGEYQMHEQNNIA	QGNIKFK	QQYFRLPIT	0.83 / 0.41 / 0.34 / 0.76 / 0.74 / 0.51	1/18 (2.70)
RIQMTDLEGRTAWNNIA	DMEESYR	QQYVRLPLY	0.59 / 1.03 / 0.68 / 2.00 / 1.02 / 1.27	0/18
SISNLGMVPSVWQNSIA	DVTIVEE	QQYSRLPLL	ND / ND / ND / ND / ND / ND	1/18 (2.32)
DLTVSDNYGSQLENNIA	QGVCKCE	QQYSRLPLA	1.10 / 1.61 / 1.65 / ND / 1.59 / 1.71	0/18
ILNLSPMGHQIHMDAIA	QEAIRNQ	QQYARLPLS	ND / ND / ND / ND / ND / ND	0/18
RLNDFQYAITGDNYAIA	NARETLM	QQYMRLPLT	0.77 / ND / 1.67 / 0.89 / 2.00 / 0.73	2/18 (2.17)
HMTEQVFQGSRNKYNIA	AEVKRVY	QQYQRLPLM	ND / 2.65 / ND / 2.60 / 3.42 / ND	1/18 (2.69)
QLMFKEATGMNNAYNIA	EAEYSGT	QQYSQLPLG	ND / ND / ND / ND / ND / 2.01	0/18

Repeated from above, the 8 best binders with a signal in all replicates:

CDR-L1	CDR-L2	CDR-L3	replicates, log10 nM	control signals
DMTVQFNGASKIQNSVA	HGVEKID	QQYSRLPLA	0.24 / 0.01 / 0.05 / -0.05 / 0.17 / -0.07	2/18 (2.51)
KMTTNLEHQASRKNSIA	EADMVAA	QQYMRLPLI	-0.01 / 0.25 / -0.20 / 0.14 / 0.03 / 0.26	0/18
KLENSNRWNYRDTNAVA	QASTRAA	QQYQRLPFL	0.27 / -0.01 / 0.15 / 0.11 / -0.09 / 0.07	2/18 (2.99)
NVGGEDPGQWYMKDSIA	GSSLRAE	QQYWRLPLL	0.21 / 0.11 / 0.12 / -0.13 / 0.17 / 0.14	0/18
KIDGQRSYQGGRERAIA	DANIRQR	QQYARLPLV	0.15 / 0.02 / 0.30 / 0.05 / 0.13 / 0.23	1/18 (2.96)
VMQMDNDRANDATKAIA	DVTMREK	QQYNRLPLM	0.36 / 0.06 / 0.24 / 0.05 / 0.05 / 0.36	1/18 (2.56)
ALQMERLGQKQWQNNIA	NQDIRTA	QQYYMLPLV	0.19 / 0.71 / 0.21 / 0.26 / 0.32 / 0.02	1/18 (2.07)
RLNCSQYDKYEHGKAIA	ADQTRMS	QQYFRLPLS	0.43 / 0.28 / 0.31 / 0.19 / 0.41 / 0.47	1/18 (3.50)